Our source for the IC50 values is patent US8552032B2, “Bicyclic derivatives useful as inhibitors of DPP-1” (Janssen Pharmaceutica NV, priority 2009, dated 2013).

Protein sequences, listed by entry. Tags and fused reporters are not part of them. Residues count along the entry.
UniProt P53634, 25-463 limits assumed: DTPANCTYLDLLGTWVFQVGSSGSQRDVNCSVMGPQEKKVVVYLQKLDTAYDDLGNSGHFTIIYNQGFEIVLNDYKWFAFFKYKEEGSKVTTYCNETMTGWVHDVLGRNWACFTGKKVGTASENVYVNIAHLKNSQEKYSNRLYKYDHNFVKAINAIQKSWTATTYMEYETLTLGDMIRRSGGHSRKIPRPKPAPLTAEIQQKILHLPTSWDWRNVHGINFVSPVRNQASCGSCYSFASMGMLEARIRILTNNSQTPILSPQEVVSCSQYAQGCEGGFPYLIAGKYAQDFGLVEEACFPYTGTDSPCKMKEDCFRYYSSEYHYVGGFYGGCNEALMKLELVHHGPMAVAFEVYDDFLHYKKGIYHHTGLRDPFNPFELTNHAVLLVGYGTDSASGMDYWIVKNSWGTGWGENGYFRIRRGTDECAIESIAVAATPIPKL

The structures appear in SMILES notation.

This assay concerns the target recombinant human DPP-1 (Cathepsin C) (Homo sapiens, UniProt P53634). Kind of assay: DPP-1 Inhibition Assay (in vitro), fluorogenic substrate GR-AMC. The note with it: read-out: DPP-1 Inhibition IC50; 0.15 nM DPP-1, 10 uM GR-AMC, pH 7.0, room temperature; average value where tested multiple times. Here is the method:
Test compounds were assessed for DPP-1 (Cathepsin C) inhibitory activity using a fluorogenic substrate, GR-AMC (Glycine-Arginine-amino-4-methylcoumarin, Bachem, 1-1215). The amount of amino-methylcoumarin released is proportional to the DPP-1 activity, and the reaction is monitored kinetically with a Molecular Devices plate reader using black 96-well plates.
All compounds were tested under room temperature conditions. The assay buffer consisted of 50 mM HEPES, pH 7.0, 100 mM NaCl, 2 mM glutathione (GSH), and 0.002% TWEEN 20. GSH and TWEEN 20 were added to the buffer fresh daily. Just prior to use, an in-house preparation of recombinant human DPP-1 (240 μM stock, MW 49.6 kD) was diluted 600-fold in assay buffer containing fresh 2 mM dithiothreitol (DTT) to activate the enzyme, then diluted into assay buffer (without DTT) 133-fold for a DPP-1 working solution of 3 nM. Test compounds were diluted in DMSO for 20× their final assay concentrations.
Additions to a 96-well black Costar 3915 plates were as follows: 90 μL of 11 μM GR-AMC, 5 μL test compound (followed by mixing), and 5 μL 3 nM DPP1 to start the reaction. Fluorescent reactions were monitored kinetically at 360 nm excitation, 440 nm emission on a Molecular Devices Spectramax XPS reader. The Softmax Pro software of the reader determined the initial velocity of the selected data (the first 3-5 minutes of the reaction), and the best linear regression fit of the initial kinetic data. Final assay conditions were 0.15 nM DPP-1, 10 uM GR-AMC, 50 mM HEPES, pH 7.0, 100 mM NaCl, 2 mM GSH, 0.002% TWEEN 20, 1 uM DTT, 5.0% DMSO. Initial velocity rates were plotted vs. test compound concentration by use of a four-parameter logistics equation (nonlinear regression, sigmoidal dose-response (variable slope), with fixed Hill (1.0) using GraphPad Prism® software for determination of DPP-1 IC50. Within-run assay coefficient of variation (CV) was generally <10%; between-run CV <20%.
Representative compounds of the present invention were tested according to the procedure as described above, with results as listed in Table 12, below.

For the compound `COc1ccc(NC(=O)c2ccc3[nH]c(C4CCN(C(=O)[C@@H](N)Cc5cccs5)CC4)cc3c2)cc1OC` [Compound 7], the IC50 (as a rule, the midpoint of a concentration-inhibition curve) is 160 nM.

`N[C@@H](Cc1cccs1)C(=O)N1CCC(c2nc3cc(Br)ccc3[nH]2)CC1`: the IC50 is 710 nM.

In the case of `CC[C@H](N)C(=O)NCCCc1cc2cc(C(=O)Nc3ccc(Cl)cc3)ccc2[nH]1`, the IC50 was 820 nM.

`CC[C@H](N)C(=O)NCCCc1cc2cc(C(=O)Nc3ccc4c(c3)OCCO4)ccc2o1`: the IC50 came out at 560 nM.

Regarding `COc1ccc(-c2ccc3[nH]c(C4CCN(C(=O)[C@@H](N)Cc5ccc(Br)s5)CC4)cc3c2)cc1OC`, the IC50 turned out to be 12000 nM.

Turning to `COc1ccc(NC(=O)c2ccc3[nH]c(CCCNC(=O)[C@@H](N)CC(N)=O)cc3c2)cc1OC`, the IC50 is greater than 10000 nM.

Consider `CC[C@H](N)C(=O)NCCCc1cc2cc(C(=O)Nc3ccc4c(c3)OCO4)ccc2o1`, for which the IC50 was 890 nM.

With `CC[C@H](N)C(=O)NCCCc1cc2cc(C(=O)Nc3ccc(Cl)c(Cl)c3)ccc2[nH]1`, the IC50 amounted to 530 nM.
